These are literature values, as cited in paper PMC5412686 (Biopharmaceutics & Drug Disposition, 2017).

The conditions of data set [1]: Rats, fraction unbound; ref Supplemental Table S1; cited from earlier work.
For data set [2] the following is noted: Humans, fraction unbound in plasma; ref Supplemental Table S1; cited from earlier work.

Read-outs that look alike come from different tables or passages of the source.

For `Cc1ncc2n1-c1ccc(Cl)cc1C(c1ccccc1F)=NC2` [Midazolam], the f up in data set [1] is reported as 0.06. As for `CCOC(=O)C1=C(C)NC(C)=C(C(=O)OC)C1c1cccc([N+](=O)[O-])c1` (centres unmarked) [Nitrendipine], the f up is listed as 0.01 in data set [2] and 0.04 in data set [1].

Turning to `COc1ccc2[nH]c([S+]([O-])Cc3ncc(C)c(OC)c3C)nc2c1` (centres unmarked) [Omeprazole], the f up in data set [1] is 0.13. As for `Cc1ccc(-c2nc3ccc(C)cn3c2CC(=O)N(C)C)cc1` [Zolpidem], in data set [1], the f up is recorded as 0.13.
